Literature values as cited in publication PMC7666069 (Journal of medicinal chemistry, 2020).

Tested on: male mice
Details: 34 days of 15 or 30 mg/kg daily; cited from earlier work

C=C(C)[C@@H]1CCC(C)=C[C@H]1c1c(O)cc(CCCCC)cc1O [CBD, Cannabidiol]
reproductive toxicity (testosterone, spermatogenesis, daily sperm production, sperm morphology): significant changes in several measures of reproductive health
